19 compounds from patent US9890152B2 (Genentech, Inc., priority 2012, dated 2018) can be followed below.

Sequences of proteins named here, by UniProt entry; tags and fusion partners are left off. Residues count along the entry.
UniProt P00533, 25-1210 T790M/L858R limits assumed: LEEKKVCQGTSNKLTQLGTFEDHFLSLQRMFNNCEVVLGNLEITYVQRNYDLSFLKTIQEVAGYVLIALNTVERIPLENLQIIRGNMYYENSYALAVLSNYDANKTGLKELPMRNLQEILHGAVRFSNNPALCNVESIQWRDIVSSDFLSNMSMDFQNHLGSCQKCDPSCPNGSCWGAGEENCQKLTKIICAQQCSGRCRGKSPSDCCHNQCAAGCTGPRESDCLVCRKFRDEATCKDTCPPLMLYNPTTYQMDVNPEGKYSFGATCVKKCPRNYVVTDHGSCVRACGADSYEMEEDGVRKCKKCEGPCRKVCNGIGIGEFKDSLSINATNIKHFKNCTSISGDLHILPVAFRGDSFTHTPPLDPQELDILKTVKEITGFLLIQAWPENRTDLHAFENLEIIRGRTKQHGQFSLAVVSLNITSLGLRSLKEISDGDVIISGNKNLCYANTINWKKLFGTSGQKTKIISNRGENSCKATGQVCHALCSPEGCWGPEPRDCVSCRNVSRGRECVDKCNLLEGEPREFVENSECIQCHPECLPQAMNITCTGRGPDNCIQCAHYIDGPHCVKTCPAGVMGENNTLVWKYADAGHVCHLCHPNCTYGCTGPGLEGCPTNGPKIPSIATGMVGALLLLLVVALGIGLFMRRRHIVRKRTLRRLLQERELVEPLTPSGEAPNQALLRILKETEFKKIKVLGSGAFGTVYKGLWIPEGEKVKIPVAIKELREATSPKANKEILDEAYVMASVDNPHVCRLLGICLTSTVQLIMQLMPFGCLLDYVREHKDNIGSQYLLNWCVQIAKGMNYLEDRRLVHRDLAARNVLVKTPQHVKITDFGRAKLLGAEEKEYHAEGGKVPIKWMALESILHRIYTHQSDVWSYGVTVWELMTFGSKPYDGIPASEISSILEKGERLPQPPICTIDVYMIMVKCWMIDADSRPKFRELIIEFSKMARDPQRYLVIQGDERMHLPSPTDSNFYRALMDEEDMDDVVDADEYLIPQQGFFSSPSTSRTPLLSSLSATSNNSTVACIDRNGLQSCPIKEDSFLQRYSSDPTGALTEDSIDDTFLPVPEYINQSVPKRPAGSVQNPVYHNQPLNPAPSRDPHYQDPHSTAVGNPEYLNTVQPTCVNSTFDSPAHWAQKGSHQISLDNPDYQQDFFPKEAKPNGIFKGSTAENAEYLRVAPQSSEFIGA

For the assay, the target named is EGFR T790M L858R (Homo sapiens, UniProt P00533, L858R/T790M). The assay is described as follows: biochemical. The following applies: EGFR(T790M/L858R) Ki (μM), 5 μM ATP, 30 min, room temperature; apparent Ki (Morrison) converted by Cheng-Prusoff, Km of ATP 1.3 μM.

On to `CCC(C)n1cc(C(=O)NC2CCOC2)c2cnc(Nc3ccnc(N4CCC(O)C(C)(C)C4)n3)cc21` (mixture of isomers) [Example 373, 1-(sec-butyl)-6-((2-(4-hydroxy-3,3-dimethylpiperidin-1-yl)pyrimidin-4-yl)amino)-N-(tetrahydrofuran-3-yl)-1H-pyrrolo[3,2-c]pyridine-3-carboxamide], for which the Ki was 0.00178 µM.
For the compound `CCC(C)n1cc(C(=O)NC2CCOC2)c2cnc(Nc3ccnc(-c4cnn(S(=O)(=O)C5CC5)c4)n3)cc21` (mixture of isomers) [Example 382, 1-(sec-butyl)-6-((2-(1-(cyclopropylsulfonyl)-1H-pyrazol-4-yl)pyrimidin-4-yl)amino)-N-(tetrahydrofuran-3-yl)-1H-pyrrolo [3,2-c]pyridine-3-carboxamide], the Ki was 0.000573 µM.
The figure for `CCC(C)n1cc(C(=O)NC2CCOCC2)c2cnc(Nc3ccnc(N4CCC(O)C(C)(C)C4)n3)cc21` (mixture of isomers) [Example 384, 1-(sec-butyl)-6-((2-(4-hydroxy-3,3-dimethylpiperidin-1-yl)pyrimidin-4-yl)amino)-N-(tetrahydro-2H-pyran-4-yl)-1H-pyrrolo[3,2-c]pyridine-3-carboxamide] is 0.00238 µM; for `CCC(C)n1cc(C(=O)NC2CCN(C3COC3)CC2)c2cnc(Nc3ccnc(N4CC[C@H](O)[C@H](F)C4)n3)cc21` (mixture of isomers) [Example 389, 1-(sec-butyl)-6-((2-((3R,4S)-3-fluoro-4-hydroxypiperidin-1-yl)pyrimidin-4-yl)amino)-N-(1-(oxetan-3-yl)piperidin-4-yl)-1H-pyrrolo[3,2-c]pyridine-3-carboxamide] it is 0.00163 µM; for `CCC(C)n1cc(C(=O)N[C@H]2CCOC[C@H]2F)c2cnc(Nc3ccnc(N4CC[C@@H](O)[C@@H](F)C4)n3)cc21` (mixture of isomers) [Example 637, 1-(sec-butyl)-6-((2-((3S,4R)-3-fluoro-4-hydroxypiperidin-1-yl)pyrimidin-4-yl)amino)-N-((3SR, 4SR)-3-fluorotetrahydro-2H-pyran-4-yl)-1H-pyrrolo[3,2-c]pyridine-3-carboxamide] it is 0.00169 µM.
The figure for `CCC(C)n1cc(N2CCCC2=O)c2cnc(Nc3ccnc(N4CC[C@@H](O)[C@@H](F)C4)n3)cc21` (mixture of isomers) [Example 641, 1-(1-(sec-butyl)-6-((2-((3S,4R)-3-fluoro-4-hydroxypiperidin-1-yl)pyrimidin-4-yl)amino)-1H-pyrrolo[3,2-c]pyridin-3-yl)pyrrolidin-2-one] is 0.00142 µM; for `CCC(C)n1cnc2cnc(Nc3ccnc(N4CCC(OC)CC4)n3)cc21` (racemic) [Example 153, ± (1-sec-butyl-1H-imidazo[4,5-c]pyridin-6-yl)-[2-(4-methoxypiperidin-1-yl)pyrimidin-4-yl]amine] it is 0.0091 µM; for `CC(O)c1nc2cnc(Nc3ccnc(-c4cnn(S(=O)(=O)C5CC5)c4)n3)cc2n1C(C)C` (racemic) [Example 294, (±)-1-{6-[2-(1-Cyclopropanesulfonyl-1H-pyrazol-4-yl)pyrimidin-4-ylamino]-1-isopropyl-1H-imidazo[4,5-c]pyridin-2-yl}ethanol] it is 0.00351 µM.
Consider `COC1CCN(c2nccc(Nc3cc4c(cn3)nc([C@@H](C)O)n4[C@H](C)C(F)(F)F)n2)CC1F` (mixture of isomers) [Example 297, (R)-1-[6-[2-(cis-3-Fluoro-4-methoxypiperidin-1-yl)pyrimidin-4-ylamino]-1-((R)-2,2,2-trifluoro-1-methylethyl)-1H-imidazo[4,5-c]pyridin-2-yl]ethanol], for which the Ki was 0.00725 µM.
Take `Cc1nc2cnc(Nc3ccnc(-n4cnc(C(C)O)c4)n3)cc2n1C(C)C` (racemic) [Example 332, (+/−)-1-(1-(4-((1-Isopropyl-2-methyl-1H-imidazo[4,5-c]pyridin-6-yl)amino)pyrimidin-2-yl)-1H-imidazol-4-yl)ethanol]: the Ki turned out to be 0.0825 µM.
On to `CCC(C)n1cc(C(=O)NC2CCN(C3COC3)CC2)c2cnc(Nc3ccnc(-c4cnn(S(=O)(=O)C5CC5)c4)n3)cc21` (racemic) [Example 371, (±)-1-(sec-butyl)-6-((2-(1-(cyclopropylsulfonyl)-1H-pyrazol-4-yl)pyrimidin-4-yl)amino-N-(1-(oxetan-3-yl)piperidin-4-yl)-1H-pyrrolo[3,2-c]pyridine-3-carboxamide], for which the Ki was 0.00137 µM.
With `CC(C)n1cc(C(=O)N[C@@H]2CCN(C3COC3)C[C@@H]2F)c2cnc(Nc3ccnc(-c4cnn(S(=O)(=O)C5CC5)c4)n3)cc21` (racemic) [Example 372, (±)-6-((2-(1-(cyclopropylsulfonyl)-1H-pyrazol-4-yl)pyrimidin-4-yl)amino)-N-((cis)-3-fluoro-1-(oxetan-3-yl)piperidin-4-yl)-1-isopropyl-1H-pyrrolo[3,2-c]pyridine-3-carboxamide], the Ki turned out to be 0.00111 µM.
The figure for `CC(C)n1cc(C(=O)NC2CCOCC2)c2cnc(Nc3ccnc(N4CCC(O)C(C)(C)C4)n3)cc21` (racemic) [Example 385, (±)-6-((2-(4-hydroxy-3,3-dimethylpiperidin-1-yl)pyrimidin-4-yl)amino)-l-isopropyl-N-(tetrahydro-2H-pyran-4-yl)-1H-pyrrolo[3,2-c] pyridine-3-carboxamide] is 0.0027 µM; for `Cc1nc2cnc(Nc3ccnc(-c4cnn(C5CCNC5)c4)n3)cc2n1C(C)C` (racemic) [Example 398, (±)-1-isopropyl-2-methyl-N-(2-(1-(pyrrolidin-3-yl)-1H-pyrazol-4-yl)pyrimidin-4-yl)-1H-imidazo[4,5-c]pyridin-6-amine] it is 0.27 µM.
Regarding `Cc1nc2cnc(Nc3ccnc(-c4cnn(S(=O)(=O)CC5COCCO5)c4)n3)cc2n1C(C)C` (racemic) [Example 404, (±)-N-(2-(1-(((1,4-dioxan-2-yl)methyl)sulfonyl)-1H-pyrazol-4-yl)pyrimidin-4-yl)-1-isopropyl-2-methyl-1H-imidazo[4,5-c] pyridin-6-amine], the Ki stood at 0.0879 µM.
For the compound `Cc1nc2cnc(Nc3ccnc(-c4cnn(S(=O)(=O)C5CCOC5)c4)n3)cc2n1C(C)C` (racemic) [Example 406, (±)-1-isopropyl-2-methyl-N-(2-(1-((tetrahydrofuran-3-yl)sulfonyl)-1H-pyrazol-4-yl)pyrimidin-4-yl)-1H-imidazo[4,5-c]pyridin-6-amine], the Ki was 0.0137 µM.
With `Cc1nc2cnc(Nc3ccnc(NC(C)C(C)(C)C(N)=O)n3)cc2n1C(C)C` (racemic) [Example 417, (±)-3-((4-((1-isopropyl-2-methyl-1H-imidazo[4,5-c]pyridin-6-yl)amino)pyrimidin-2-yl)amino)-2,2-dimethylbutanamide], the Ki came out at 0.0441 µM.
With `CCC1COCCN1c1nccc(Nc2cc3c(cn2)nc(C)n3C(C)C)n1` (racemic) [Example 419, (±)-N-(2-(3-ethylmorpholino)pyrimidin-4-yl)-1-isopropyl-2-methyl-1H-imidazo[4,5-c]pyridin-6-amine] the figure was 0.0723 µM; with `Cc1nc2cnc(Nc3ccnc(N4CC[C@@H]5OC(=O)N[C@@H]5C4)n3)cc2n1C(C)C` (racemic) [Example 498, (±)-(cis)-5-(4-((1-Isopropyl-2-methyl-1H-imidazo[4,5-c]pyridin-6-yl)amino)pyrimidin-2-yl)hexahydrooxazolo [4,5-c]pyridin-2(3H)-one], 0.694 µM.
